Patent US20160113282A1 (HONBU SANKEI CO., LTD., priority 2013, published 2016)

Legend:
MDCK cells = assay: Impairment in colony formation capability; conditions: phosphoric acid buffer (FIG. 7)
HEp-2 cells [1] = tested on: HEp-2 cells
Vero cells = assay: Impairment in colony formation capability; conditions: phosphoric acid buffer (FIG. 7)
HEp-2 cells [2] = assay: Impairment in colony formation capability; conditions: phosphoric acid buffer (FIG. 7)

Substance: chlorous acid [Chlorous acid aqueous solution]
- impairment action in comparison to that of sodium hypochlorite (MDCK cells): about ¼
- concentration giving dead cells at an amount similar to sodium hypochlorite at 0.5 ppm (HEp-2 cells [1]; 20 minutes incubation, trypan blue (FIG. 5)): 50 ppm
- cytotoxic action relative to sodium hypochlorite (HEp-2 cells [1]; FIG. 5): about 1/100
- concentration achieving a ratio of dead cells similar to a minute concentration of sodium hypochlorite (HEp-2 cells [1]; buffers of various pH (FIG. 6)): ≥ 100 ppm
- difference in cytotoxic action versus sodium hypochlorite (HEp-2 cells [1]; buffers of various pH (FIG. 6)): 100 fold
- concentration at which impairment in colony formation was observed (Vero cells): > 20 ppm
- concentration at which impairment in colony formation was observed (HEp-2 cells [2]): > 20 ppm
